PMC6605800 (The Journal of Cell Biology, 2019)

Target: the molecule itself
Test: SEC

B1: G3BP1_(1-168)-WT (domain or fragment)
chain: MVMEKPSPLLVGREFVRQYYTLLNQAPDMLHRFYGKNSSYVHGGLDSNGKPADAVYGQKEIHRKVMSQNFTNCHTKIRHVDAHATLNDGVVVQVMGLLSNNNQALRRFMQTFVLAPEGSVANKFYVHNDIFRYQDEVFGGFVTEPQEESEEEVEEPEERQQTPEVVPD
- binding result: binds
